By UniProt entry, the sequences of proteins in these tests, tags left out. Residues count along the entry.
UniProt P02701, 25-152: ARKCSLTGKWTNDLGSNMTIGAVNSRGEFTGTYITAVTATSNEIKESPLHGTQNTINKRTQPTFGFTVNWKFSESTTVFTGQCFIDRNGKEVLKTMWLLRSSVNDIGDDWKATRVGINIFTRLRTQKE

According to patent US20240376226A1, “COMPOSITIONS AND METHODS RELATING TO TUMOR ACTIVATED T CELL ENGAGERS” (Janux Therapeutics, Inc., priority 2019, published 2024):

Legend:
Cetuximab (Ab-1, Ab-3) = test: Phagemid competition ELISA, Cetuximab pre-incubated with EGFR; format: binding; settings: for Phage ELISA 2 nM EGFR % inhib: pre-incubation with 2 nM EGFR; for Phage ELISA 20 nM EGFR % inhib: pre-incubation with 20 nM EGFR
SP34 (Ab-9, Ab-10) [1] = test: BLI kinetic binding of antibody to peptides (Octet); settings: Target SP34; biotinylated synthetic peptide on sensor
[2] = system: SP34 (Ab-9, Ab-10) binding to CD3; test: BLI inhibition of kinetic binding of antibody to cognate antigen by peptides; settings: Target SP34, 100 uM peptide
SP34 (Ab-9, Ab-10) [3] = test: ELISA equilibrium binding of antibody to peptides; settings: Target SP34; antibody titrated on captured peptide
[4] = biological target: SP34 (Ab-9, Ab-10) binding to CD3; test: ELISA inhibition of equilibrium binding of antibody to cognate antigen by peptides; settings: Target SP34; peptide inhibition of antibody binding to CD3
neutravidin = neutravidin (Gallus gallus, UniProt P02701); test: Phage ELISA, phage binding to neutravidin alone (NAv bkgd); settings: clonal phage, ELISA signal on neutravidin alone
SP34 (Ab-9, Ab-10) [5] = test: Phagemid competition ELISA, SP34 pre-incubated with CD3; format: binding; settings: for Phage ELISA 20 nM CD3 % inhib: 20 nM CD3 pre-incubation; for Phage ELISA 200 nM CD3 % inhib: 200 nM CD3 pre-incubation

Octet BLI Binds (SP34 (Ab-9, Ab-10) [1])	Octet BLI Competes at 100 uM [2]	EC50 (SP34 (Ab-9, Ab-10) [3]) [nM]	IC50 [4] [nM]	Phage ELISA NAv bkgd (neutravidin)	SMILES	Phage ELISA 2 nM EGFR % inhib (Cetuximab (Ab-1, Ab-3)) [%]	Phage ELISA 20 nM EGFR % inhib (Cetuximab (Ab-1, Ab-3)) [%]	Phage ELISA 20 nM CD3 % inhib (SP34 (Ab-9, Ab-10) [5]) [%]	Phage ELISA 200 nM CD3 % inhib (SP34 (Ab-9, Ab-10) [5]) [%]
–	–	–	–	–	CC(C)[C@@H]1NC(=O)[C@H](CCCNC(=N)N)NC(=O)[C@H](CC(=O)O)NC(=O)[C@H](Cc2c[nH]c3ccccc23)NC(=O)[C@H](CCC(N)=O)NC(=O)[C@@H](NC(=O)[C@H](CC(N)=O)NC(=O)CNC(=O)CN)CSSC[C@@H](C(=O)N[C@@H](CO)C(=O)NCC(=O)NCC(=O)NCC(=O)NCC(=O)N[C@@H](CO)C(=O)NCCOCCOCCOCCOCCC(=O)N[C@@H](CCCCNC(=O)CCCC[C@@H]2SC[C@@H]3NC(=O)N[C@@H]32)C(N)=O)NC(=O)[C@H](C)NC(=O)[C@H](Cc2ccc(O)cc2)NC(=O)[C@H]([C@@H](C)O)NC(=O)[C@H](Cc2c[nH]cn2)NC(=O)[C@H](CCC(=O)O)NC1=O [Peptide-3]	95	95	–	–
–	–	–	–	–	CSCC[C@@H]1NC(=O)[C@H](Cc2c[nH]cn2)NC(=O)[C@H](CO)NC(=O)CNC(=O)[C@H](CC(=O)O)NC(=O)[C@H](Cc2c[nH]cn2)NC(=O)[C@@H](NC(=O)[C@H](CO)NC(=O)[C@@H](NC(=O)[C@H](Cc2c[nH]c3ccccc23)NC(=O)CNC(=O)CN)C(C)C)CSSC[C@@H](C(=O)N[C@@H](Cc2ccccc2)C(=O)N[C@@H](Cc2c[nH]cn2)C(=O)NCC(=O)NCC(=O)NCC(=O)NCC(=O)N[C@@H](CO)C(=O)NCCOCCOCCOCCOCCC(=O)N[C@@H](CCCCNC(=O)CCCC[C@@H]2SC[C@@H]3NC(=O)N[C@@H]32)C(N)=O)NC(=O)[C@H]([C@@H](C)O)NC1=O [Peptide-4]	39	39	–	–
–	–	–	–	–	CSCC[C@H](NC(=O)CNC(=O)CN)C(=O)N[C@@H](CC(N)=O)C(=O)N[C@H]1CSSC[C@@H](C(=O)N[C@@H](CC(C)C)C(=O)N[C@H](C(=O)NCC(=O)NCC(=O)NCC(=O)NCC(=O)N[C@@H](CO)C(=O)NCCOCCOCCOCCOCCC(=O)N[C@@H](CCCCNC(=O)CCCC[C@@H]2SC[C@@H]3NC(=O)N[C@@H]32)C(N)=O)C(C)C)NC(=O)[C@H](Cc2ccc(O)cc2)NC(=O)[C@H](CCC(=O)O)NC(=O)[C@H](C(C)C)NC(=O)[C@H](Cc2c[nH]c3ccccc23)NC(=O)[C@H](CC(C)C)NC(=O)[C@H](CCCNC(=N)N)NC(=O)[C@H](CC(N)=O)NC(=O)[C@H](CC(C)C)NC1=O [Peptide-5]	39	20	–	–
–	–	–	–	–	CC(C)[C@@H]1NC(=O)[C@H](Cc2c[nH]c3ccccc23)NC(=O)[C@H]([C@@H](C)O)NC(=O)[C@H](CC(N)=O)NC(=O)[C@H](CC(=O)O)NC(=O)[C@H](CCC(N)=O)NC(=O)CNC(=O)[C@@H](NC(=O)[C@H](Cc2ccc(O)cc2)NC(=O)CNC(=O)CN)CSSC[C@@H](C(=O)N[C@@H](Cc2ccccc2)C(=O)NCC(=O)NCC(=O)NCC(=O)NCC(=O)N[C@@H](CO)C(=O)NCCOCCOCCOCCOCCC(=O)N[C@@H](CCCCNC(=O)CCCC[C@@H]2SC[C@@H]3NC(=O)N[C@@H]32)C(N)=O)NC(=O)CNC(=O)[C@H](CCC(=O)O)NC(=O)[C@H](CCCNC(=N)N)NC1=O [Peptide-6]	95	95	–	–
YES	YES	2.75	4760	–	CC[C@H](C)[C@H](NC(=O)CNC(=O)CNC(=O)[C@@H]1CSSC[C@H](NC(=O)CNC(=O)[C@H](Cc2c[nH]c3ccccc23)NC(=O)[C@H](CC(C)C)NC(=O)[C@H](Cc2ccc(O)cc2)NC(=O)CNC(=O)[C@H](CCC(N)=O)NC(=O)CNC(=O)[C@H](CO)NC(=O)[C@H](CCC(N)=O)NC(=O)CNC(=O)[C@@H](N)CCC(N)=O)C(=O)N[C@@H](CCC(=O)O)C(=O)N[C@@H](Cc2c[nH]c3ccccc23)C(=O)N[C@@H](CC(N)=O)C(=O)N1)C(=O)N[C@H](C(=O)N[C@H](C(=O)NCC(=O)NCC(=O)NCC(=O)NCC(=O)N[C@@H](CO)C(=O)NCCOCCOCCOCCOCCC(=O)N[C@@H](CCCCNC(=O)CCCC[C@@H]1SC[C@@H]2NC(=O)N[C@@H]21)C(N)=O)[C@@H](C)O)[C@@H](C)O [Peptide-18]	–	–	–	–
YES	YES	8.03	–	0.051	CC[C@H](C)[C@H](NC(=O)[C@H](CCC(=O)O)NC(=O)[C@@H]1CSSC[C@H](NC(=O)[C@@H](NC(=O)[C@H](CO)NC(=O)[C@H](CC(=O)O)NC(=O)CNC(=O)CN)C(C)C)C(=O)N[C@@H](C)C(=O)N[C@@H](CC(=O)O)C(=O)N2CCC[C@H]2C(=O)N[C@@H](CCC(=O)O)C(=O)N[C@@H](C(C)C)C(=O)N2CCC[C@H]2C(=O)N[C@@H]([C@@H](C)CC)C(=O)N1)C(=O)NCC(=O)NCC(=O)NCC(=O)NCC(=O)N[C@@H](CO)C(=O)NCCOCCOCCOCCOCCC(=O)N[C@@H](CCCCNC(=O)CCCC[C@@H]1SC[C@@H]2NC(=O)N[C@@H]21)C(N)=O [Peptide-19]	–	–	92	94
YES	YES	8.25	–	0.052	CC[C@H](C)[C@H](NC(=O)CNC(=O)CN)C(=O)N[C@@H](CCC(N)=O)C(=O)N[C@H]1CSSC[C@@H](C(=O)N[C@@H](Cc2ccc(O)cc2)C(=O)N[C@H](C(=O)NCC(=O)NCC(=O)NCC(=O)NCC(=O)N[C@@H](CO)C(=O)NCCOCCOCCOCCOCCC(=O)N[C@@H](CCCCNC(=O)CCCC[C@@H]2SC[C@@H]3NC(=O)N[C@@H]32)C(N)=O)[C@@H](C)CC)NC(=O)[C@@H]2CCCN2C(=O)[C@H](CO)NC(=O)[C@@H]2CCCN2C(=O)[C@H](CC(C)C)NC(=O)[C@H](CC(=O)O)NC(=O)[C@@H]2CCCN2C(=O)[C@H](CC(=O)O)NC(=O)[C@H](Cc2c[nH]cn2)NC1=O [Peptide-21]	–	–	89	89
YES	YES	2.56	1810	0.051	CC(C)C[C@@H]1NC(=O)[C@@H](NC(=O)[C@H](Cc2c[nH]c3ccccc23)NC(=O)[C@H](CCC(=O)O)NC(=O)CNC(=O)CN)CSSC[C@@H](C(=O)N[C@@H](CCC(N)=O)C(=O)N[C@@H](CC(=O)O)C(=O)NCC(=O)NCC(=O)NCC(=O)NCC(=O)N[C@@H](CO)C(=O)NCCOCCOCCOCCOCCC(=O)N[C@@H](CCCCNC(=O)CCCC[C@@H]2SC[C@@H]3NC(=O)N[C@@H]32)C(N)=O)NC(=O)[C@H]([C@@H](C)O)NC(=O)[C@@H]2CCCN2C(=O)[C@H](C(C)C)NC(=O)[C@H](CC(=O)O)NC(=O)[C@@H]2CCCN2C(=O)[C@H](CC(=O)O)NC(=O)[C@H](Cc2ccccc2)NC1=O [Peptide-22]	–	–	87	93
YES	YES	8.2	–	0.055	CC[C@H](C)[C@@H]1NC(=O)[C@H](CC(=O)O)NC(=O)[C@H](CC(N)=O)NC(=O)[C@@H](NC(=O)CNC(=O)[C@H](CC(C)C)NC(=O)CNC(=O)CN)CSSC[C@@H](C(=O)N[C@H](C(=O)N[C@H](C(=O)NCC(=O)NCC(=O)NCC(=O)NCC(=O)N[C@@H](CO)C(=O)NCCOCCOCCOCCOCCC(=O)N[C@@H](CCCCNC(=O)CCCC[C@@H]2SC[C@@H]3NC(=O)N[C@@H]32)C(N)=O)C(C)C)[C@@H](C)CC)NC(=O)[C@H](CCC(N)=O)NC(=O)[C@H](CCC(=O)O)NC(=O)CNC(=O)[C@@H]2CCCN2C(=O)[C@H](CC(=O)O)NC1=O [Peptide-23]	–	–	85	85
YES	YES	7.62	–	0.062	CC[C@H](C)[C@@H]1NC(=O)[C@H](CC(=O)O)NC(=O)[C@H](CCC(N)=O)NC(=O)[C@@H]2CCCN2C(=O)[C@H](CCC(=O)O)NC(=O)[C@H](Cc2c[nH]c3ccccc23)NC(=O)[C@H](CC(=O)O)NC(=O)[C@H](CC(N)=O)NC(=O)[C@H]([C@@H](C)CC)NC(=O)[C@@H]2CCCN2C(=O)[C@@H](NC(=O)[C@H](CC(C)C)NC(=O)CNC(=O)CN)CSSC[C@@H](C(=O)N[C@@H](Cc2c[nH]c3ccccc23)C(=O)NCC(=O)NCC(=O)NCC(=O)NCC(=O)N[C@@H](CO)C(=O)NCCOCCOCCOCCOCCC(=O)N[C@@H](CCCCNC(=O)CCCC[C@@H]2SC[C@@H]3NC(=O)N[C@@H]32)C(N)=O)NC1=O [Peptide-27]	–	–	94	95

SMILES	Octet BLI Binds (SP34 (Ab-9, Ab-10) [1])	Octet BLI Competes at 100 uM [2]	EC50 (SP34 (Ab-9, Ab-10) [3]) [nM]	IC50 [4] [nM]	Phage ELISA NAv bkgd (neutravidin)	Phage ELISA 2 nM EGFR % inhib (Cetuximab (Ab-1, Ab-3)) [%]	Phage ELISA 20 nM EGFR % inhib (Cetuximab (Ab-1, Ab-3)) [%]	Phage ELISA 20 nM CD3 % inhib (SP34 (Ab-9, Ab-10) [5]) [%]	Phage ELISA 200 nM CD3 % inhib (SP34 (Ab-9, Ab-10) [5]) [%]
CC[C@H](C)[C@@H]1NC(=O)[C@H](CCC(=O)O)NC(=O)[C@H](C(C)C)NC(=O)CNC(=O)[C@@H]2CCCN2C(=O)[C@H](CC(=O)O)NC(=O)CNC(=O)[C@@H](NC(=O)[C@H](CC(=O)O)NC(=O)[C@H](CO)NC(=O)[C@H](CCSC)NC(=O)CNC(=O)CN)CSSC[C@@H](C(=O)N[C@H](C(=O)N[C@@H](Cc2c[nH]cn2)C(=O)NCC(=O)NCC(=O)NCC(=O)NCC(=O)N[C@@H](CO)C(=O)NCCOCCOCCOCCOCCC(=O)N[C@@H](CCCCNC(=O)CCCC[C@@H]2SC[C@@H]3NC(=O)N[C@@H]32)C(N)=O)[C@@H](C)O)NC1=O [Peptide-20]	YES	YES	7.13	–	0.092	–	–	97	98
